# Reference: PubChem BioAssay AID2098 (Broad Institute, 2009)
# The entries are a selection whose mix differs from that of the whole data set. Calls of active or inactive are those of the source.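 How the source made its calls: active means more than half of replicate wells show activity change below -50%, luminescence cut by over half; inconclusive means some wells, but at most half, below -50%; inactive means no replicate well below -50%.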
# Assay: HSF1 inhibitors in luciferase reporter cells, primary screen, cell-based, NIH3T3, luminescence (AID 2098);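 further: luciferase reports HSF-1 transcriptional activity via heat shock element; 0% = median of DMSO wells and -100% = zero luminescence signal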
# Conditions: NIH3T3-HGL HSE-luciferase, MG132-induced, luminescence 8 h; active compounds read low; screened at 7.5 µM (by protocol)
row,SMILES,"activity change, negative = inhibition"
1,COc1ccccc1OP(C)(=O)Nc1cccc(Br)c1 (stereo not given),inactive: -25.7%
2,Cc1cc(C)cc(OP(C)(=O)Nc2ccc(C)cc2C)c1 (stereo not given),inactive: -1.54%
3,CCOC(=O)c1ccc(NP(C)(=O)Oc2cc(C)cc(C)c2)cc1 (stereo not given),inactive: 1.87%
4,Cc1cc(C)cc(OP(C)(=O)Nc2ccccn2)c1 (stereo not given),inactive: 9.39%
5,CP(=O)(Nc1cccc(Br)c1)Oc1ccccc1 (stereo not given),inactive: 4.75%
6,Cc1ccc(C)c(NP(C)(=O)Oc2ccccc2)c1 (stereo not given),inactive: -3.04%
7,CCN(CC)CCCOC(=O)C(O)(c1ccccc1)c1ccccc1,inactive: 7.64%
8,O=[N+]([O-])c1cc([N+](=O)[O-])c(Nc2cccnc2)c([N+](=O)[O-])c1,inactive: 6.44%
9,Cc1cccc(C)c1OP(C)(N)=O (stereo not given),inactive: -1.82%
10,CC(C)(C)c1ccc(OP(C)(=O)Nc2ccc(SC(F)(F)F)cc2)cc1 (stereo not given),inactive: 11%
11,O=[N+]([O-])c1ccc2c(c1)C=Nc1ccccc1O2,inactive: -7.27%
12,CCOC(=O)c1ccc(NP(C)(=O)Oc2ccccc2)cc1 (stereo not given),inactive: 6.36%
13,Cc1ccc(NP(C)(=O)Oc2ccccc2)c(C)c1 (stereo not given),inactive: -2.01%
14,COc1ccccc1OP(C)(=O)Nc1ccc(C)cc1 (stereo not given),inactive: 0.693%
15,COc1ccc(OP(C)(=O)Nc2cccc(F)c2)cc1 (stereo not given),inactive: -2.48%
16,COc1ccccc1OP(C)(=O)Nc1cc(Cl)ccc1C (stereo not given),inactive: 1.35%
17,Cc1cc(C)cc(OP(C)(N)=O)c1 (stereo not given),inactive: -2.32%
18,CP(=S)(Nn1cnnc1)Oc1ccccc1 (stereo not given),inactive: -6.21%
19,COc1ccccc1OP(C)(=O)Nc1ccccc1 (stereo not given),inactive: -3.46%
20,CP(=O)(Nc1ccccc1Br)Oc1ccccc1 (stereo not given),inactive: 1.77%
21,CP(=O)(Oc1ccccc1)OC(c1ccccc1)C(F)(F)F (stereo not given),inactive: -0.163%
22,Cc1cccc(C)c1OP(C)(=O)Nc1ccc(SC(F)(F)F)cc1 (stereo not given),inactive: 5.4%
23,CP(=O)(Nc1ccc(SC(F)(F)F)cc1)Oc1ccc(Cl)cc1 (stereo not given),inactive: -0.169%
24,Cc1cc(C)cc(OP(C)(=O)Nc2ccc(SC(F)(F)F)cc2)c1 (stereo not given),inactive: 5.7%
25,CP(=O)(NC(=O)Nc1ccccc1)Oc1ccccc1 (stereo not given),inactive: -4.19%
26,CCc1ccc(OP(C)(=O)N2CCN(c3ccc([N+](=O)[O-])cc3)CC2)cc1 (stereo not given),inactive: -0.957%
27,CCOP(C)(=S)SCC(=O)NC(C)C(=O)O (stereo not given),inactive: -6.26%
28,CCOC(=O)c1ccc(NP(C)(=O)Oc2ccc(OC)cc2)cc1 (stereo not given),inactive: -18.7%
29,O=[N+]([O-])c1cc([N+](=O)[O-])c(O)c([N+](=O)[O-])c1.c1ccc(Oc2ccncc2)cc1,inactive: -4.49%
30,CP(=O)(Nc1ccccn1)Oc1ccc(Cl)cc1 (stereo not given),inactive: -5.99%
